From article PMC5983490, “White-rot basidiomycetes Junghuhnia nitida and Steccherinum bourdotii: Oxidative potential and laccase properties in comparison with Trametes hirsuta and Coriolopsis caperata” (PLoS ONE, 2018)

Substrate: CCn1c(=NN=c2sc3cc(S(=O)(=O)O)ccc3n2CC)sc2cc(S(=O)(=O)O)ccc21
Experiment: purified protein
Settings: 0.1 M McIlvaine buffer pH 4.5, 25 °C

B1: ThL (Trametes hirsuta laccase) (Trametes hirsuta) (protein)
chain: AVGPVADLTITDAAVSPDGFSRQAVVVNGVTPGPLVAGNIGDRFQLNVIDNLTNHTMLKSTSIHWHGFFQHGTNWADGPAFINQCPISPGHSFLYDFQVPDQAGTFWYHSHLSTQYCDGLRGPFVVYDPNDPHASRYDVDNDDTVITLADWYHTAAKLGPRFPGGADATLINGKGRAPSDSPAELSVIKVTKGKRYRFRLVSLSCNPNHTFSIDGHNLTIIEVDSVNSQPLEVDSIQIFAAQRYSFVLDANQAVDNYWIRANPNFGNVGFDGGINSAILRYDGAPAVEPTTNQTTSVKPLNEVDLHPLVSTPVPGSPSSGGVDKAINMAFNFNGSNFFINGASFVPPTVPVLLQILSGAQTAQDLLPSGSVYVLPSNASIEISFPATAAAPGAPHPFHLHGHTFAVVRSAGSTVYNYDNPIFRDVVSTGTPAAGDNVTIRFDTNNPGPWFLHCHIDFHLEGGFAVVMAEDTPDVKAVNPVPQAWSDLCPTYDALDPNDQ
Km: 17 ± 2 µM
kcat: 122 s⁻¹
kcat/Km: 7.18e+06 M⁻¹ s⁻¹
